pIC50: −log10 of the molar value.
Target: PI3K p110 beta/p85 alpha (Homo sapiens, UniProt P42338)
Assay: Inhibition of recombinant human full-length N-terminal His6-tagged p110beta/human recombinant full-length untagged p85alpha expressed in baculovirus infected Sf21 insect cells using PIP2 as substrate after 30 mins in presence of ATP at 2xKm concentration by TR-FRET assay
Outline: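 Class I PI3K isoforms assayed in vitro for kinase inhibition with ATP at 2Km steady-state concentration; IC50 values averaged over at least 2 determinations.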

Chains of the proteins cited; added tags and fusions are not shown. Lines headed by an entry give the natural chain unless they say otherwise; changes in a name come on top.
UniProt P42338: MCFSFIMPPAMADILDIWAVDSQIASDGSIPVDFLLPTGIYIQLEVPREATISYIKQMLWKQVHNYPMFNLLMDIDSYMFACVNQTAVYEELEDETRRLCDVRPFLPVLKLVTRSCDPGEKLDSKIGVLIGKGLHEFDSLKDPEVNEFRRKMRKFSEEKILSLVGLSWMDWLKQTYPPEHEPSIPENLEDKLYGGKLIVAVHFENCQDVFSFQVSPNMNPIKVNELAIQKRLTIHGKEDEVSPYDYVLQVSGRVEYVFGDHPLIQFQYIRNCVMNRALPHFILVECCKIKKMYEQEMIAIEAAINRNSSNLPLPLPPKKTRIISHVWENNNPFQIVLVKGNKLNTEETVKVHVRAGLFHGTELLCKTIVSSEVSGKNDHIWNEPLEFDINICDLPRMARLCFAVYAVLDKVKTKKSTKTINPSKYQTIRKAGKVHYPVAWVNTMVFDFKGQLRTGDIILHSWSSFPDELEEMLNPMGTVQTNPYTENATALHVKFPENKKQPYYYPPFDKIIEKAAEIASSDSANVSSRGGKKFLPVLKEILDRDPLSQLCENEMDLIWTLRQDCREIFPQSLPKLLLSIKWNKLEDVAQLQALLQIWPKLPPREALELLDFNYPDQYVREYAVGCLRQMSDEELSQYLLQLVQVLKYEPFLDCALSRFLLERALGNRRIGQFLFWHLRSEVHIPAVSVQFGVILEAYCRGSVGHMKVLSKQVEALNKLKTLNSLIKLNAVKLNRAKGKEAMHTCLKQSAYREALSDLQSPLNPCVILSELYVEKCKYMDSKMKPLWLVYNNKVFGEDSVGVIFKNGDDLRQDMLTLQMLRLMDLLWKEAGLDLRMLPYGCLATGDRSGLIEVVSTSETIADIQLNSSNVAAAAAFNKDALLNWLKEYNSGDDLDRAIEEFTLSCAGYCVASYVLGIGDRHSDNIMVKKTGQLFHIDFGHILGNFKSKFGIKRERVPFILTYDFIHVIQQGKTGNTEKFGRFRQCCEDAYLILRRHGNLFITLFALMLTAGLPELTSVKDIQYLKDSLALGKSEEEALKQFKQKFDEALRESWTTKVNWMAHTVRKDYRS

pIC50: 7.20
Compound: Cc1cc(C(C)Nc2ccccc2)c2nc(N3CCOCC3)cc(=O)n2c1 (stereo unspecified)
